The values that follow come from patent publication US11254667B2 (priority 2016, dated 2022).

The assay has as its target CDK7/cyclin H (Homo sapiens (Human), UniProt P50613). The note with it: read-out: IC50 CDK7/cyclin H.

As for `CC1(COc2ccc3c(c2)ncn3-c2ccc3cccc(N4CCC(N)CC4)c3n2)COC1` [Crenolinib, reference compound], the IC50 was determined as 1260 nM.
